Values quoted from earlier work as cited in paper PMC12640937, “Integrating drug effects on individual cardiac ionic currents and cardiac action potentials to understand nonclinical translation to clinical ECG changes” (Frontiers in Pharmacology, 2025).

Tested on: hERG1a and hERG1a/1b channels
Details: ref Tran et al., 2020; cited from earlier work

## CO[C@]12CC[C@@]3(C[C@@H]1[C@](C)(O)C(C)(C)C)[C@H]1Cc4ccc(O)c5c4[C@@]3(CCN1)[C@H]2O5
  pharmacological difference between hERG1a and hERG1a/1b channels: no pharmacological differences
